Values of other authors in patent US7906508B2, “3,4-dihydrobenzoxazine compounds and inhibitors of vanilloid receptor subtype 1 (VRI) activity” (Japan Tobacco Inc., priority 2005, dated 2011).

By UniProt entry, the sequences of proteins in these tests, tags left out.
UniProt O35433, whole entry: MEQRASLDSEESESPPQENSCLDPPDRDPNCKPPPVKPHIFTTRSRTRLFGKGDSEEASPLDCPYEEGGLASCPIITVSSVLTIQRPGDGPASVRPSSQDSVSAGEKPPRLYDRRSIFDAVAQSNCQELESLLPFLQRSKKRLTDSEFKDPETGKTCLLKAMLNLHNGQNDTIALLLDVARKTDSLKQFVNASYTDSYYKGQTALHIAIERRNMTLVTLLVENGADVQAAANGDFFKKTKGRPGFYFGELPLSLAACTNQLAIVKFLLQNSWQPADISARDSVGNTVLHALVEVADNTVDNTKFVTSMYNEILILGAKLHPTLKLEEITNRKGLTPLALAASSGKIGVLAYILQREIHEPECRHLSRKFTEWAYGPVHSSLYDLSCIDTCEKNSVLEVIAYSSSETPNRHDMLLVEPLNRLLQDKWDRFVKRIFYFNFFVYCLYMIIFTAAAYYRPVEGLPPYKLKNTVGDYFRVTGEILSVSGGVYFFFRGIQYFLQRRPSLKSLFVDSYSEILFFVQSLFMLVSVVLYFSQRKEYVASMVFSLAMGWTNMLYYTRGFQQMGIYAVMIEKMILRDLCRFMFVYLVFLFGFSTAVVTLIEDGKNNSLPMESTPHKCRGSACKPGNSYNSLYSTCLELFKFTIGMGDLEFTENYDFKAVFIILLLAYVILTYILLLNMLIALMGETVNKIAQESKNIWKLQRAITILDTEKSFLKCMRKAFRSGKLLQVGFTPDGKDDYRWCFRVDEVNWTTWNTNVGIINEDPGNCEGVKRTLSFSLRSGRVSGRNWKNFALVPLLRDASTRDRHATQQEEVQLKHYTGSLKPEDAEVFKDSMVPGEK

Biological target: VR1 (Rattus norvegicus, UniProt O35433)
Conditions: J Pharmacol Exp Ther. 2003 July; 306 (1): 377-86; cited from earlier work

CC(C)(C)c1ccc(NC(=O)N2CCN(c3ncccc3Cl)CC2)cc1 [BCTC]
inhibitory activity (value of IC50) of BCTC according to the document: several
